According to IntAct's records for PubMed 35512704:

B1: RAC-alpha serine/threonine-protein kinase (Homo sapiens), P31749 (parent)
chain: MSDVAIVKEGWLHKRGEYIKTWRPRYFLLKNDGTFIGYKERPQDVDQREAPLNNFSVAQCQLMKTERPRPNTFIIRCLQWTTVIERTFHVETPEEREEWTTAIQTVADGLKKQEEEEMDFRSGSPSDNSGAEEMEVSLAKPKHRVTMNEFEYLKLLGKGTFGKVILVKEKATGRYYAMKILKKEVIVAKDEVAHTLTENRVLQNSRHPFLTALKYSFQTHDRLCFVMEYANGGELFFHLSRERVFSEDRARFYGAEIVSALDYLHSEKNVVYRDLKLENLMLDKDGHIKITDFGLCKEGIKDGATMKTFCGTPEYLAPEVLEDNDYGRAVDWWGLGVVMYEMMCGRLPFYNQDHEKLFELILMEEIRFPRTLGPEAKSLLSGLLKKDPKQRLGGGSEDAKEIMQHRFFAGIVWQHVYEKKLSPPFKPQVTSETDTRYFDEEFTAQMITITPPDQDDSMECVDSERRPHFPQFSYSASGTA
partner: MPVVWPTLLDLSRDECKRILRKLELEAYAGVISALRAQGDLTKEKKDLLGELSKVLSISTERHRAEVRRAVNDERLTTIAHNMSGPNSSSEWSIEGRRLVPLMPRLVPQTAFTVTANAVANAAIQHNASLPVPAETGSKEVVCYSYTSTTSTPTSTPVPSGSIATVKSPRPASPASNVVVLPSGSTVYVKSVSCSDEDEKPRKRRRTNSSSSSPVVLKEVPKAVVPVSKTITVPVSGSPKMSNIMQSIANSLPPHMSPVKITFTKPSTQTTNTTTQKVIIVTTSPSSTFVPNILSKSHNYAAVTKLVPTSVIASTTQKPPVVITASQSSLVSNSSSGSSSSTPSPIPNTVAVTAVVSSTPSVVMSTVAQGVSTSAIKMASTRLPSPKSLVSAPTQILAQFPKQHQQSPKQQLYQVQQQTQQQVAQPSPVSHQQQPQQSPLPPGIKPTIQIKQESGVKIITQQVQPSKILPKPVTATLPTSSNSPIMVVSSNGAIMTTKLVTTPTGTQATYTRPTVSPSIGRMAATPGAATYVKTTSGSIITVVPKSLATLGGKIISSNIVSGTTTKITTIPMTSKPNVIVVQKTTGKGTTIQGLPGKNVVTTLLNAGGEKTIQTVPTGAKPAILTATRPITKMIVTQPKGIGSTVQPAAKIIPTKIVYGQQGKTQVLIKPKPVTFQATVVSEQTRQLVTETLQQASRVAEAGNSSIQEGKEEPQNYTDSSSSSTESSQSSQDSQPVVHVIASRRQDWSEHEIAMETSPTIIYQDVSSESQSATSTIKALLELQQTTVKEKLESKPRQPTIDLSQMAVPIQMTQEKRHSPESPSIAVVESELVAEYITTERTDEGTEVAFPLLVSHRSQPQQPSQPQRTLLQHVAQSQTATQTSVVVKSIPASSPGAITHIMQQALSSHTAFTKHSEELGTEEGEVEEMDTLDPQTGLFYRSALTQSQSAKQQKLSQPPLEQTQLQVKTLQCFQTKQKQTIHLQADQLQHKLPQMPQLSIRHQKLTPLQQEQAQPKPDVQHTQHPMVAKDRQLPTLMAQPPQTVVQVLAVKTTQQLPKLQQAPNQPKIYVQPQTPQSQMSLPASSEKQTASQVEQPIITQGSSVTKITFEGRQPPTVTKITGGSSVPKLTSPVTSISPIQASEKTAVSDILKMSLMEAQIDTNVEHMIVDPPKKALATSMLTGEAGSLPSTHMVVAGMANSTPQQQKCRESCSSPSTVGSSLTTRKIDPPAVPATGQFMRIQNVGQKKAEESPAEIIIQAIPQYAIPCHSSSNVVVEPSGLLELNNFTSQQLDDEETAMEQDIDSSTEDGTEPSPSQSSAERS
B2: RAC-alpha serine/threonine-protein kinase (Homo sapiens), P31749 (parent)
chain: B1 chain
partner: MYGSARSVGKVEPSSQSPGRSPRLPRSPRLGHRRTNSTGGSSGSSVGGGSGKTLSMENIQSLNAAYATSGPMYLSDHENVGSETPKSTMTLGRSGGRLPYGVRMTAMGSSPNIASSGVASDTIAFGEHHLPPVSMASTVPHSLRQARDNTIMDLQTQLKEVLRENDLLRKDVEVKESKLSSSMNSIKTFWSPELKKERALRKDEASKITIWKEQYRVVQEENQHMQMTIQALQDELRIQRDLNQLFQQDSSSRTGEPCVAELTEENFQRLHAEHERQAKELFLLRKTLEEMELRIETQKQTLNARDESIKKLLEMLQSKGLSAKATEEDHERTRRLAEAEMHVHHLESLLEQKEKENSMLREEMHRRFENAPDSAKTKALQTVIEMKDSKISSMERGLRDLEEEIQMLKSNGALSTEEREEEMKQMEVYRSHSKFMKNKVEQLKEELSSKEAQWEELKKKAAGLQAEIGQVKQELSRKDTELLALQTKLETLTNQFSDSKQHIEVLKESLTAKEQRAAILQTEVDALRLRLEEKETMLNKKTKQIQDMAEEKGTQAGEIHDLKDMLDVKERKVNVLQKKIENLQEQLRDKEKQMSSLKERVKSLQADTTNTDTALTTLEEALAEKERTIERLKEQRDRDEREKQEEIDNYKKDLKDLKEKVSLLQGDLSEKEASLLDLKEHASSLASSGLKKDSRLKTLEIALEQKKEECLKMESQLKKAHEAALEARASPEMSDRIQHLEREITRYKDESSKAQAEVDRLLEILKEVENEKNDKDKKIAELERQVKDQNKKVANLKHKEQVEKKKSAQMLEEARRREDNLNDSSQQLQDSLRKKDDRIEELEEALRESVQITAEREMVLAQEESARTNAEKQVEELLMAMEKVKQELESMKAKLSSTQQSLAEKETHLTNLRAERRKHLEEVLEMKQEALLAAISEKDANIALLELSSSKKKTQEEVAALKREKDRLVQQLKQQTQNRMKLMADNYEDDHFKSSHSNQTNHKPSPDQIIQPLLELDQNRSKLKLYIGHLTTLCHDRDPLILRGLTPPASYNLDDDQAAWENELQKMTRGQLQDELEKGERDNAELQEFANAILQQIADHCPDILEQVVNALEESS
B3: RAC-alpha serine/threonine-protein kinase (Homo sapiens), P31749 (parent)
chain: B1 chain
partner: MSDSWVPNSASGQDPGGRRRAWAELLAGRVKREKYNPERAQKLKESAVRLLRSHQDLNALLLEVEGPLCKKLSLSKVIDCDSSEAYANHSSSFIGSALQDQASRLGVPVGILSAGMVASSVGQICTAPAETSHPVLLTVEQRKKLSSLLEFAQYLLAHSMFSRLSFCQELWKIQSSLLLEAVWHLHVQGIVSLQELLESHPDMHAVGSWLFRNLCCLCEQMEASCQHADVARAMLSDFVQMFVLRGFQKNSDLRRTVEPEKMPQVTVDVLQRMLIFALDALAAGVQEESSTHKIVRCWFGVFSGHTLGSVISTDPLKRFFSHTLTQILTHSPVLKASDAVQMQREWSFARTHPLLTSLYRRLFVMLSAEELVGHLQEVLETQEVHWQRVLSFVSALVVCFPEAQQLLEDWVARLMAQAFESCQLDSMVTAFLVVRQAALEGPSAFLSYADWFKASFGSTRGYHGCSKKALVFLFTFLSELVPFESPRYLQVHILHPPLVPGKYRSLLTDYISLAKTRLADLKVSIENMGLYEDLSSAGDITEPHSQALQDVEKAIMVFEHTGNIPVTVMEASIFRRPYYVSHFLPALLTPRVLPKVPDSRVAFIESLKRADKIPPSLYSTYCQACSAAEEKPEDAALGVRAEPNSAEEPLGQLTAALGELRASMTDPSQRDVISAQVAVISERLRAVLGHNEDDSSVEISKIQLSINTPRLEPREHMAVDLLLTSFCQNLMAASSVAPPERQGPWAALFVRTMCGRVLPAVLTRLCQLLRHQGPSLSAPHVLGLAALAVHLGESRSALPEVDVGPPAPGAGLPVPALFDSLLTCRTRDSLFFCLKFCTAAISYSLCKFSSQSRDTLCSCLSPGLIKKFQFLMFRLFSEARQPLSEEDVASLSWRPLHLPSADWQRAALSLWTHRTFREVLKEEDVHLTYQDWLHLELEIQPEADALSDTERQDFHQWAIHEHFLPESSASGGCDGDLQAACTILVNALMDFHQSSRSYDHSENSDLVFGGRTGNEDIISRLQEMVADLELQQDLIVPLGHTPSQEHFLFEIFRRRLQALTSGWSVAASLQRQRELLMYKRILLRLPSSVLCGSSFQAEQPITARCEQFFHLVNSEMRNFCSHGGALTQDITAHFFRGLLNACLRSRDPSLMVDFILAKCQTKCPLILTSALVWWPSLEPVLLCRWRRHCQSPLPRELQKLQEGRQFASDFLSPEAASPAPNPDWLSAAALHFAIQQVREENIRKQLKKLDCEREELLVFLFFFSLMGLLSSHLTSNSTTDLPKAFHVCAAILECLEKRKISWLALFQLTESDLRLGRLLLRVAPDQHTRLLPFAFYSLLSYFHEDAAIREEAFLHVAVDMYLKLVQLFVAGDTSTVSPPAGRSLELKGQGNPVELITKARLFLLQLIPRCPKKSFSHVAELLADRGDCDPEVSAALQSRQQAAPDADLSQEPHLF
B4: RAC-alpha serine/threonine-protein kinase (Homo sapiens), P31749 (parent)
chain: B1 chain
partner: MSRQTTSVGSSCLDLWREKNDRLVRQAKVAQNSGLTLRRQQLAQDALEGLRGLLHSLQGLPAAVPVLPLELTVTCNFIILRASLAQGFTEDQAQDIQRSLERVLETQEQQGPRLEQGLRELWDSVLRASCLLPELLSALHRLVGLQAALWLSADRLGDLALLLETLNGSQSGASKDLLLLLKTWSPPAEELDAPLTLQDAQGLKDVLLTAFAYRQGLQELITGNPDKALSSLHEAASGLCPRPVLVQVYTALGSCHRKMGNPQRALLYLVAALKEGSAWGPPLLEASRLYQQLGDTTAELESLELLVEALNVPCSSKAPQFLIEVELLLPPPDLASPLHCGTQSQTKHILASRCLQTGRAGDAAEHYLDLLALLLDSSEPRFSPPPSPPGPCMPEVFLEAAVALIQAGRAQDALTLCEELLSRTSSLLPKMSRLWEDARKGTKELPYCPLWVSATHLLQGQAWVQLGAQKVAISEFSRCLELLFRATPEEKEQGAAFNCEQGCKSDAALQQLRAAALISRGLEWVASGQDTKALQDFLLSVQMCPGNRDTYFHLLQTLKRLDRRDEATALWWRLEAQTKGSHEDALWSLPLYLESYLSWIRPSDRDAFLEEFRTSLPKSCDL
B5: RAC-alpha serine/threonine-protein kinase (Homo sapiens), P31749 (parent)
chain: B1 chain
partner: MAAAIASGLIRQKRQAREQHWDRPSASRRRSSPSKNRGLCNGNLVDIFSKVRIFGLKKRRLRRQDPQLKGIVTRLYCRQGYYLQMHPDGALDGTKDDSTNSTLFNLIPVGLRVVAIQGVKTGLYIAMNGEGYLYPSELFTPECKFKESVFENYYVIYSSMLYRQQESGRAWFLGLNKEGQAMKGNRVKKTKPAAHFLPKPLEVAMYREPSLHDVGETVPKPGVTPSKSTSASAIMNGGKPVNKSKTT

Variants of: B1
Conditions: with emsy_human EMSY

Variant	effect of a mutation on the interaction
E17K	with no effect

Variants of: B2
Conditions: with rb6i2_human ERC1, Q8IUD2

Variant	effect of a mutation on the interaction
E17K	with no effect

Variants of: B3
Conditions: with fanca_human FANCA

Variant	effect of a mutation on the interaction
E17K	with no effect

Variants of: B4
Conditions: with fancg_human FANCG

Variant	effect of a mutation on the interaction
E17K	with no effect

Variants of: B5
Conditions: with fgf14_human FGF14, Q92915

Variant	effect of a mutation on the interaction
E17K	with no effect
